AlphaSeq binding of Ab-14 heavy chain variants to a spike HR2 peptide

Binding partner: SARS-CoV-2 spike HR2 peptide, sequence PDVDLGDISGINAS.

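Phage display of a naive human antibody library on the peptide gave the parent. Variants in AAYL49 differ from the parent at up to three CDR positions; double and triple changes were sampled at random. In AlphaSeq, yeast of one mating type display the scFv and yeast of the other type display the target. The frequency of each diploid, read from paired DNA barcodes, reflects how well the two displayed proteins bind. A regression on co-assayed BCL2-family reference pairs converts the normalised counts of each replicate to an apparent Kd. Each pool was mated in three replicate cultures.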

Parent scFv Ab-14: VH joined to VL by a (GGGGS)3 linker. Changes lie in the heavy chain CDRs alone.
VH: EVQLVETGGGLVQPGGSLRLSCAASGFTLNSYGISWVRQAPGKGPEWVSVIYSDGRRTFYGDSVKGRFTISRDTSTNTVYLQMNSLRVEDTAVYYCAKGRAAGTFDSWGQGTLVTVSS
VL: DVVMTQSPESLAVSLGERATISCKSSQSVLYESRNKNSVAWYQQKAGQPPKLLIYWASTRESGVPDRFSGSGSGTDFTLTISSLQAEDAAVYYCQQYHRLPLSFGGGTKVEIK

The parent's heavy chain CDRs are GFTLNSYGIS, VIYSDGRRTFYGDSVK, GRAAGTFDS; each variant's own CDRs replace them letter for letter.
All variants listed here change G33 of the VH, counted from its first residue.
Values are log10 of the apparent Kd in nM; lower means stronger binding.
Replicates are averaged; those with no signal do not enter the mean.
An entry "nd" has no value in the source: the pair was not observed among the diploids in any replicate. This suggests poor binding but is not conclusive.
For reference, the parent read 0.65 as the reference entry and 4.11 (one replicate of three) as a member of this library.
As a blank, each scFv also met three strains without target: over library AAYL49, 15% of these pairings were detected, typically at 4.06 and seldom below 2.83. Also given: how often the same scFv was detected with the empty control strains.

With GFTLHSYPIS | VIYKDGRRTFYGDSVK | GRAAGTFDS the result was nd (0 of 3 replicates; controls 3 of 9). Variant GFTLNSETIS | VIYSDGRRTFYGDSVK | GRALGTFDS gave nd (0 of 3 replicates; controls 0 of 9). Variant GFTLASYLIS | VIYSDGRRTFYGDSVK | GRLAGTFDS gave nd (0 of 3 replicates; controls 0 of 9). For GFTLNSYSIS | VIYSDGRRLFYGDSVK | GRAAGTFDS, the assay gave nd (0 of 3 replicates; controls 2 of 9). With GFTLNQYHIS | VIYSNGRRTFYGDSVK | GRAAGTFDS the result was nd (0 of 3 replicates; controls 0 of 9). For GFTLNSYHIS | VIYSDGRRTFYGDSVK | GRAAGTFDS, the assay gave nd (0 of 3 replicates; controls 0 of 9). Variant GFTLNSYIIS | VIYSDGRWTFYGDSVK | GRAAGTFSS gave 4.13 (2 of 3 replicates; controls 3 of 9). For GFTLNSYSIY | VIYSDGRRTFYGDSVK | GRAAGTFDS, the assay gave 4.04 (2 of 3 replicates; controls 0 of 9). With GFTFNSYWIS | VIYSDGRRTFYGDSKK | GRAAGTFDS the result was nd (0 of 3 replicates; controls 0 of 9).

For GFTLNSYSIS | VIYSKGRRTFYGDSVK | GREAGTFDS, the assay gave nd (0 of 3 replicates; controls 1 of 9). Variant GFTLNSYIIS | VIDSDGRRTFYGDSVK | GRMAGTFDS gave nd (0 of 3 replicates; controls 2 of 9). Variant GFTLNSYELS | VIYSDGRRTFYGDSVK | GRAAGTFDS showed nd (0 of 3 replicates; controls 0 of 9). Variant GFCLNSYKIS | MIYSDGRRTFYGDSVK | GRAAGTFDS showed nd (0 of 3 replicates; controls 0 of 9). For GFSLNSYTIS | VIYSDGRRTFYGDSVK | GVAAGTFDS, the assay gave nd (0 of 3 replicates; controls 5 of 9). Variant GFTLNSYYIS | VIYSDERRTFYPDSVK | GRAAGTFDS showed 4.24 (3 of 3 replicates; controls 2 of 9). For GFTLNSYQIS | VIYSDERRTFYGDSVK | GRHAGTFDS, the assay gave nd (0 of 3 replicates; controls 1 of 9). For GFTLNSYKIS | VIYSDGRRTMYGDSVK | GRAYGTFDS, the assay gave nd (0 of 3 replicates; controls 0 of 9). With GFTLNSYIIS | VIYRDGRRTFYGDSVK | GRAAGTFDS the result was nd (0 of 3 replicates; controls 1 of 9).

Variant VFTLNSYEIS | VSYSDGRRTFYGDSVK | GRAAGTFDS gave nd (0 of 3 replicates; controls 0 of 9). Variant FFTLNSYEIS | VIYIDGRRTFYGDSVK | GRAAGTFDS showed nd (0 of 3 replicates; controls 2 of 9). Variant GFTLNSYLIS | VIYSDGRRTFYGDSVV | GRAAWTFDS gave 4.57 (3 of 3 replicates; controls 6 of 9). Variant GFTLNSYVIS | VIYSDGRHTFYGDSVK | GRAAGTFVS showed 3.82 (1 of 3 replicates; controls 2 of 9). With GFTLNSYDIS | VIYSDGRRTFMHDSVK | GRAAGTFDS the result was nd (0 of 3 replicates; controls 0 of 9). Variant GFTLNSYSIS | VHYSDGRRTFRGDSVK | GRAAGTFDS showed 5.42 (1 of 3 replicates; controls 0 of 9). Variant GFTLNSYNIS | VIYSDGRRTFYGDSVK | GYAAITFDS showed 3.58 (1 of 3 replicates; controls 2 of 9). Variant GFTLNSYWIS | VIYSDGRRTFYGDSVK | KRAAGMFDS showed nd (0 of 3 replicates; controls 0 of 9). Variant GFTLNSYQIS | VIYSDGRRHFYGDSPK | GRAAGTFDS gave nd (0 of 3 replicates; controls 0 of 9).

Variant GFTLNSYAIS | VIYSDGRRTQYGDSVK | GRQAGTFDS gave nd (0 of 3 replicates; controls 1 of 9). For GFTLNSYAIS | VIYSDGTRTFYGDSIK | GRAAGTFDS, the assay gave 3.03 (1 of 3 replicates; controls 0 of 9). With GFTLNSYHIS | VIYSDDRRTFYGDSVT | GRAAGTFDS the result was 4.45 (2 of 3 replicates; controls 0 of 9). For GFTLNSYPIS | VMYSDGRRTFYGQSVK | GRAAGTFDS, the assay gave nd (0 of 3 replicates; controls 0 of 9). Variant GFTLNSYVIS | VIYSDGRREFYGDSWK | GRAAGTFDS gave nd (0 of 3 replicates; controls 0 of 9). With GMTSNSYIIS | VIYSDGRRTFYGDSVK | GRAAGTFDS the result was nd (0 of 3 replicates; controls 1 of 9). Variant NFTLRSYEIS | VIYSDGRRTFYGDSVK | GRAAGTFDS showed 3.95 (1 of 3 replicates; controls 3 of 9). With GFTLNSYWIS | VIYSDGRRTWYGDSVK | GRAAGTPDS the result was nd (0 of 3 replicates; controls 0 of 9). With GFTLGSLQIS | VIYSDGRRTFYGDSVK | GRAAGTFDS the result was nd (0 of 3 replicates; controls 0 of 9).

Variant GFTLNSYSIS | VIYSDRRRTFYGHSVK | GRAAGTFDS gave nd (0 of 3 replicates; controls 1 of 9). For GFTLNSYKIS | VIYSDGRRTFYGDSVI | GLAAGTFDS, the assay gave 4.62 (3 of 3 replicates; controls 3 of 9). Variant GFTLNSYAIS | VIYSDGRRTFYLDSVK | GRAAGTMDS gave 5.89 (1 of 3 replicates; controls 2 of 9). Variant GFTLNSYWIS | VIYSDGRETFYGDSVK | GRAAGTFDS showed 3.66 (1 of 3 replicates; controls 3 of 9). Variant GFTLNSYLIS | VIYSDGRRTFYGDSVK | GRHAMTFDS gave 4.20 (1 of 3 replicates; controls 3 of 9). Variant GFTLNSYNIS | VILSDGRRTFYVDSVK | GRAAGTFDS showed 5.98 (2 of 3 replicates; controls 4 of 9). Variant GFTLNSYWIS | VIYSDGRRTFYGDSVK | GYAAGTFDM gave nd (0 of 3 replicates; controls 0 of 9). With GFTLNSYWIS | VIYSDGRRTRYGDSVK | GRAAGTFDS the result was 5.34 (1 of 3 replicates; controls 6 of 9). Variant GFTLNSYCIS | VIWSDGRRTFYGDSVK | GRAAGTFDS showed nd (0 of 3 replicates; controls 0 of 9).

With GFTLNSYEIS | VIYSDGRRTFYGDSVK | GRAAGTFDS the result was nd (0 of 3 replicates; controls 0 of 9). For GFTLNSYIIS | VTYSDGRATFYGDSVK | GRAAGTFDS, the assay gave nd (0 of 3 replicates; controls 0 of 9). Variant GFTLNSYNYS | VIYSDGRREFYGDSVK | GRAAGTFDS showed 3.15 (1 of 3 replicates; controls 0 of 9). Variant GFDLNSYRIS | VIYSDGRRTFYGDSVK | RRAAGTFDS showed 4.52 (1 of 3 replicates; controls 2 of 9). For GFTLNDYIIS | VIYSDGRRTFYGDSVK | GRAAGMFDS, the assay gave nd (0 of 3 replicates; controls 0 of 9). With GFTLNSYFAS | VIYSDGPRTFYGDSVK | GRAAGTFDS the result was 3.98 (2 of 3 replicates; controls 2 of 9). For GFTLNSYQIS | VIYSDGRRTFYGQSVK | GRAAYTFDS, the assay gave nd (0 of 3 replicates; controls 0 of 9).

The first 3 entries again:

CDR-H1	CDR-H2	CDR-H3	mean log10 Kd (nM)	detected	signal with controls
GFTLHSYPIS	VIYKDGRRTFYGDSVK	GRAAGTFDS	nd	0 of 3	3 of 9
GFTLNSETIS	VIYSDGRRTFYGDSVK	GRALGTFDS	nd	0 of 3	0 of 9
GFTLASYLIS	VIYSDGRRTFYGDSVK	GRLAGTFDS	nd	0 of 3	0 of 9

Values reported by Engelhart et al. 2022, doi:10.1038/s41597-022-01779-4 (FLAb copy).